Values quoted from earlier work in publication PMC4734687, “Peptide-Based Optical uPAR Imaging for Surgery: In Vivo Testing of ICG-Glu-Glu-AE105” (PLoS ONE, 2016).

By UniProt entry, the sequences of proteins in these tests, tags left out. Residues count along the entry.
UniProt Q03405, 23-305 limits assumed: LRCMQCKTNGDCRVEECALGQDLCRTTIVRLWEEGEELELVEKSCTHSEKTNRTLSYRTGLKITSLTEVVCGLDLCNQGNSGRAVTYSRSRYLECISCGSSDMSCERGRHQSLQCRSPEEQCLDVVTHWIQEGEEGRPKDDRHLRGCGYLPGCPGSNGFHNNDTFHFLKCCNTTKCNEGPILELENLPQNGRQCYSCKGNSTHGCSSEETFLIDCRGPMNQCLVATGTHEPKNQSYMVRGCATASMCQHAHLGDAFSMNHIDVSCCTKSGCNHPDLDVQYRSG

Biological target: uPAR (Homo sapiens, UniProt Q03405)
Settings: read-out: IC50 for uPAR binding of unmodified AE105; comparison value for unmodified peptide; cited from earlier work
Description: Photophysical properties of ICG-Glu-Glu-AE105 was compared to ICG. The absorption spectrum of ICG-AE105 was slightly broadened as compared to the absorption spectrum of ICG, while the fluorescence and excitation spectra were identical for ICG and ICG-AE105 (Fig 1C). Additionally the binding of ICG-Glu-Glu-AE105 to purified uPAR was measured and yielded an IC50 ≈ 134 nM compared to 20 nM for the unmodified AE105 [21] (Fig 1B)

With CC(C)C[C@H](NC(=O)[C@H](Cc1ccc(O)cc1)NC(=O)[C@@H](CCCNC(=N)N)NC(=O)[C@@H](CO)NC(=O)[C@H](Cc1ccccc1)NC(=O)[C@H](CC1CCCCC1)NC(=O)[C@@H](N)CC(=O)O)C(=O)N[C@@H](Cc1c[nH]c2ccccc12)C(=O)N[C@@H](CO)C(=O)O as the compound, how does the IC50 read?
The IC50 was 0.02 µM.
